Test results from patent US20170273985A1, “TRICYCLIC DERIVATIVE” (Sunovion Pharmaceuticals Inc., priority 2014, published 2017).

Sequences of proteins named here, by UniProt entry; tags and fusion partners are left off.
UniProt Q01064, whole entry: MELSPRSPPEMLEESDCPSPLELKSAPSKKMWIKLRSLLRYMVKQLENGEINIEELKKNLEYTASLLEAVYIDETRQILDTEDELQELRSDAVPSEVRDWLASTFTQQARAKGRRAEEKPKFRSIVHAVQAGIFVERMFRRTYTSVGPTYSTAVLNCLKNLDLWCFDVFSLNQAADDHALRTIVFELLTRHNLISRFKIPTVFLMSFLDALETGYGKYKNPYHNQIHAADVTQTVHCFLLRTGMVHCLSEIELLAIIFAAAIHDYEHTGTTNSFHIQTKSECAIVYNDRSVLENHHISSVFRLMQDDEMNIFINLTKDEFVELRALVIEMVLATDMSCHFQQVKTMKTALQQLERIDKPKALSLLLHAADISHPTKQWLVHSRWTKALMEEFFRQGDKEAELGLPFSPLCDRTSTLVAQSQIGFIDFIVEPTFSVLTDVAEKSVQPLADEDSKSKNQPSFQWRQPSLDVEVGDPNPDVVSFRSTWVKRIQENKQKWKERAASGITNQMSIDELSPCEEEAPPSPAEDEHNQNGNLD
UniProt P54750, whole entry: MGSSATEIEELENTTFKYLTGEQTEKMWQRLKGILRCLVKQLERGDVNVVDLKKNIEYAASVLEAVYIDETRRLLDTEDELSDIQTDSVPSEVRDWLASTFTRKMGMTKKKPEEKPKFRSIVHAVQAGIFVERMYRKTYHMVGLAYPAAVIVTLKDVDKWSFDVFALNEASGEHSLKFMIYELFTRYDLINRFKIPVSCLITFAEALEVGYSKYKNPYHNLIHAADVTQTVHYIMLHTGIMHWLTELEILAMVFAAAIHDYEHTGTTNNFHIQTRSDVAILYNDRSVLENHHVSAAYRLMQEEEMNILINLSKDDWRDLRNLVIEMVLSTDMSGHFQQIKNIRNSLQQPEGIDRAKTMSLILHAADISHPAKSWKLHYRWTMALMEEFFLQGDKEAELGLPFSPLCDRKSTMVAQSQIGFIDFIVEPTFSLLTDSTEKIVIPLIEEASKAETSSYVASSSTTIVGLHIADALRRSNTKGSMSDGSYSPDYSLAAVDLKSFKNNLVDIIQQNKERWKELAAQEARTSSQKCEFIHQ
UniProt Q14123, whole entry: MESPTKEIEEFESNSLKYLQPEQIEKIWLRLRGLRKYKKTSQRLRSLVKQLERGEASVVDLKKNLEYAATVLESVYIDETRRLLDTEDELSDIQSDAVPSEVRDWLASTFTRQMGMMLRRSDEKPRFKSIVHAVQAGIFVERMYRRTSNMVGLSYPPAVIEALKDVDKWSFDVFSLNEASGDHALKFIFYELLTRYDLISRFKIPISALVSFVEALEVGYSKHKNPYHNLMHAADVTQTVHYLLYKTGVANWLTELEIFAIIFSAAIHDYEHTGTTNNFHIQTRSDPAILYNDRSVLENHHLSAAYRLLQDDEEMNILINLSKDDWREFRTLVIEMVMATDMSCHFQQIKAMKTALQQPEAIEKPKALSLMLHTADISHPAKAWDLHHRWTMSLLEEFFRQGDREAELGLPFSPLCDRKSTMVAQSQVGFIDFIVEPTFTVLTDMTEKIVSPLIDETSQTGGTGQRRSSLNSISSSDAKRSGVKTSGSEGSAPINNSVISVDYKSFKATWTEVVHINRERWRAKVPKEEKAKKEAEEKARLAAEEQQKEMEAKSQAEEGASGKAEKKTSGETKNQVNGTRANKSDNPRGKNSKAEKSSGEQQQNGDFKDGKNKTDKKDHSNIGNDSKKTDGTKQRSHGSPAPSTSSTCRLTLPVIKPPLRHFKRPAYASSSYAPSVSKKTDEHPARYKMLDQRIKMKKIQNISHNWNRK

Experiments:
Type in all cases: biochemical
PDE1B = PDE1B (Homo sapiens, UniProt Q01064); assay: In vitro HTRF PDE1 inhibition assay (PDE1B)
From the text: (§1) An exemplary procedure for the in vitro Homogenous Time Resolved Fluorescence assay, which can be used to determine the inhibitory action of compounds of the invention toward PDE1 or its isoforms, follows. The HTRF PDE1 assay utilized the HTRF (Homogenous Time Resolved Fluorescence) technology, which is based on the competition between unlabeled cyclic nucleotide and cyclic nucleotide labeled with XL665 for the binding to cyclic nucleotide-specific antibody labeled with cryptate. The HTRF signal is thus inversely proportional to the concentration of cyclic nucleotide being measured. Since phosphodiesterases break down cyclic nucleotides the HTRF signal was used to determine PDE activity. The Cisbio cGMP HTRF assay kit (Cat no: 62GM2PEC) was utilized. Cyclic GMP was diluted to 200 nM in HTRF assay buffer (1 mM CaCl2, 10 mM MgCl2, 10 mM Tris-HCl, 0.1% BSA, pH 7.4). 10 μl of compound or DMSO was diluted in 200 nM cyclic GMP solution and added to wells of a 96 well white plate to give 100 nM cyclic GMP in 1% DMSO final concentration. PDE (1A3, 1B or IC) was diluted to 2× working concentration in HTRF assay buffer with 2 μg/ml calmodulin, and 10 μl was added to initiate the reaction. The plate was then incubated for 45 minutes at 37° C. d2-Labelled cyclic GMP and anti-cGMP cryptate were diluted in 50 mM phosphate buffer, 0.8 M KF, 1% Triton X100, 0.2% BSA, pH 7.0. Following incubation 10 μl d2-cGMP, then 10 μl anti cGMP cryptate were added to each well and the plate was incubated for 45 minutes at room temperature. The plate was then read on Perkin Elmer Victor at 2 different FRET readings ex/emm 340 nm/665 nm and 340 nm/615 nm. Compounds having an IC50 of <1 μM, are denoted as +++. Compounds having an IC50 of 1−10 μM, are denoted as ++. Compounds having an IC50 of 10-100 μM, are denoted as +.

PDE1A3 = PDE1A3 (Homo sapiens, UniProt P54750); assay: In vitro HTRF PDE1 inhibition assay (PDE1A3)
From the text: as §1

PDE1C = PDE1C (Homo sapiens, UniProt Q14123); assay: In vitro HTRF PDE1 inhibition assay (PDE1C)
From the text: as §1

| SMILES | IC50 (PDE1B; Table 25) | IC50 (PDE1A3; Table 26) | further results |
| --- | --- | --- | --- |
| CO[C@H]1CC[C@H](CN2CCn3c2nn2c(C4CCOCC4)ncc2c3=O)CC1 | < 1000 nM | < 1000 nM | IC50 (PDE1C; Table 27): < 1000 nM |
| O=c1c2cnc(C3CCOCC3)n2nc2n1CCN2C[C@H]1CC[C@H](C(F)(F)F)CC1 | < 1000 nM | < 1000 nM | IC50 (PDE1C; Table 27): < 1000 nM |
| O=c1c2cnc(C3CCOCC3)n2nc2n1CCN2C[C@H]1CC[C@H](OC(F)(F)F)CC1 | < 1000 nM |  |  |
| N#Cc1cccc(CCN2CCn3c2nn2c(C4CCOCC4)ncc2c3=O)c1 | < 1000 nM |  |  |
| CCO[C@H]1CC[C@@H](CN2CCn3c2nn2c(C4CCOCC4)ncc2c3=O)CC1 | < 1000 nM | < 1000 nM | IC50 (PDE1C; Table 27): < 1000 nM |
| O=c1c2cnc(C3CCOCC3)n2nc2n1CCN2C[C@H]1CC[C@@H](OC(F)(F)F)CC1 | < 1000 nM |  |  |
| O=c1c2cnc(C3CCOCC3)n2nc2n1CCN2CCCCC(F)(F)F | < 1000 nM |  |  |
| O=c1c2cnc(C3CCOCC3)n2nc2n1CCN2C[C@H]1CC[C@@H](C(F)(F)F)CC1 | < 1000 nM |  |  |
| O=c1c2cnc(C3CCOCC3)n2nc2n1CCN2CC1CCC(OC(F)(F)F)CC1 (stereo not drawn) | < 1000 nM |  |  |
| CO[C@H]1CC[C@@H](CN2CCn3c2nn2c(C4CCOCC4)ncc2c3=O)CC1 | < 1000 nM |  |  |
| CCO[C@H]1CC[C@H](CN2CCn3c2nn2c(C4CCOCC4)ncc2c3=O)CC1 | < 1000 nM | < 1000 nM |  |
| CC(C)c1ncc2c(=O)n3c(nn12)N(Cc1ccc(C#N)cc1)CC3 |  |  | IC50 (PDE1B; Table 22): < 1000 nM; IC50 (PDE1A3; Table 23): < 1000 nM; IC50 (PDE1C; Table 24): < 1000 nM |
